The values below are quoted from earlier work in patent US20130101628A1, “NOVEL VEGF MIMETIC PEPTIDE-BASED SCAFFOLDS FOR THERAPEUTIC ANGIOGENESIS AND METHODS FOR THEIR USE” (NORTHWESTERN UNIVERSITY, priority 2011, published 2013).

The conditions of the data set: in vivo; cited from earlier work.

On to VEGF, for which the “retention time in tissue following injection” value was “at most, a few hours”.
